Data taken from US12383555B2, “Methods of treating cancers” (Foghorn Therapeutics Inc., priority 2020, dated 2025).

Test system: AML cell lines (OCIAML5)
Assay: Cancer cell line growth inhibition (Cell-titer glo, GI50, day 3 and day 7), compound 17
Type: cell-based
Details: compound 17, 0 to 10 micromolar

In the case of `CSCC[C@H](NC(=O)c1ccc(N)cc1)C(=O)Nc1nc(-c2cccc(-c3ccncc3)c2)cs1` [Compound 17, 4-amino-N-[(1S)-3-methylsulfanyl-1-[[4-[3-(4-pyridyl)phenyl]thiazol-2-yl]carbamoyl]propyl]benzamide], the “Sensitivity of the AML cell line relative to the other tested cell lines (GI50, FIG. 1)” value is reported as “more sensitive to BRG1/BRM inhibition than the other tested cell lines”.
